Laboratory results taken from US11911361B2, “Stable cannabinoid formulations” (priority 2014, dated 2024).

Tested on: minimal muscular or neurological impairment
Assay: Minimal motor impairment (rotorod) toxicity test (TOX), mice

## C=C(C)[C@@H]1CCC(C)=C[C@H]1c1c(O)cc(CCCCC)cc1O [cannabidiol, (−)-trans-2-p-mentha-1,8-dien-3-yl-5-pentylresorcinol]
Anticonvulsant Screening, mice, intraperitoneal, 10 mg/kg, 0.5 h, ethanol:polyethoxylated castor oil:PBS
  TOX N/F (minimal motor impairment): 0/8
Anticonvulsant Screening, mice, intraperitoneal, 10 mg/kg, 0.5 h, methylcellulose
  TOX N/F (minimal motor impairment): 0/8
Anticonvulsant Screening, mice, intraperitoneal, 10 mg/kg, 1.0 h, ethanol:polyethoxylated castor oil:PBS
  TOX N/F (minimal motor impairment): 0/8
Anticonvulsant Screening, mice, intraperitoneal, 10 mg/kg, 1.0 h, methylcellulose
  TOX N/F (minimal motor impairment): 0/8
Anticonvulsant Screening, mice, intraperitoneal, 10 mg/kg, 2.0 h, ethanol:polyethoxylated castor oil:PBS
  TOX N/F (minimal motor impairment): 0/8
Anticonvulsant Screening, mice, intraperitoneal, 10 mg/kg, 2.0 h, methylcellulose
  TOX N/F (minimal motor impairment): 0/8
Anticonvulsant Screening, mice, intraperitoneal, 30 mg/kg, 0.5 h, ethanol:polyethoxylated castor oil:PBS
  TOX N/F (minimal motor impairment): 0/8
Anticonvulsant Screening, mice, intraperitoneal, 30 mg/kg, 0.5 h, methylcellulose
  TOX N/F (minimal motor impairment): 0/8
Anticonvulsant Screening, mice, intraperitoneal, 30 mg/kg, 1.0 h, ethanol:polyethoxylated castor oil:PBS
  TOX N/F (minimal motor impairment): 0/8
Anticonvulsant Screening, mice, intraperitoneal, 30 mg/kg, 1.0 h, methylcellulose
  TOX N/F (minimal motor impairment): 0/8
Anticonvulsant Screening, mice, intraperitoneal, 30 mg/kg, 2.0 h, ethanol:polyethoxylated castor oil:PBS
  TOX N/F (minimal motor impairment): 0/8
Anticonvulsant Screening, mice, intraperitoneal, 30 mg/kg, 2.0 h, methylcellulose
  TOX N/F (minimal motor impairment): 0/8
Anticonvulsant Screening, mice, intraperitoneal, 100 mg/kg, 0.5 h, ethanol:polyethoxylated castor oil:PBS
  TOX N/F (minimal motor impairment): 0/8
Anticonvulsant Screening, mice, intraperitoneal, 100 mg/kg, 0.5 h, methylcellulose
  TOX N/F (minimal motor impairment): 0/8
Anticonvulsant Screening, mice, intraperitoneal, 100 mg/kg, 1.0 h, ethanol:polyethoxylated castor oil:PBS
  TOX N/F (minimal motor impairment): 0/8
Anticonvulsant Screening, mice, intraperitoneal, 100 mg/kg, 1.0 h, methylcellulose
  TOX N/F (minimal motor impairment): 0/8
Anticonvulsant Screening, mice, intraperitoneal, 100 mg/kg, 2.0 h, ethanol:polyethoxylated castor oil:PBS
  TOX N/F (minimal motor impairment): 0/8
Anticonvulsant Screening, mice, intraperitoneal, 100 mg/kg, 2.0 h, methylcellulose
  TOX N/F (minimal motor impairment): 0/8
ED50 Biological Response (Table 57), mice, 500 mg/kg, 2 h, methylcellulose
  TOX N/F (minimal motor impairment): 0/8
ED50 Biological Response (Table 59, MES/sc Met study), mice, 175 mg/kg, 2 h, ethanol:polyethoxylated castor oil:PBS
  TOX N/F (minimal motor impairment): 0/8
ED50 Biological Response (Table 59, MES/sc Met study), mice, 250 mg/kg, 2 h, ethanol:polyethoxylated castor oil:PBS
  TOX N/F (minimal motor impairment): 4/8
ED50 Biological Response (Table 59, MES/sc Met study), mice, 325 mg/kg, 2 h, ethanol:polyethoxylated castor oil:PBS
  TOX N/F (minimal motor impairment): 6/8
Example 12, 1:1:18 ethanol:polyethoxylated castor oil:PBS solvent
  toxicity observations (in words): Death was reported at 24 hours at 300 mg/kg and at 6 and 24 hours for 500 mg/kg
Example 13
  toxicity observations (in words): Myoclonic jerks were reported in at 1 hour with 200 mg/kg dose and at 2 hours with 360 mg/kg dose
Tables 55/56 (6 Hz study), CF1 mice, intraperitoneal, 200 mg/kg, 2 h, ethanol:polyethoxylated castor oil:PBS
  TOX N/F (minimal motor impairment): 0/8
Tables 55/56 (6 Hz study), CF1 mice, intraperitoneal, 250 mg/kg, 2 h, ethanol:polyethoxylated castor oil:PBS
  TOX N/F (minimal motor impairment): 4/8
Tables 55/56 (6 Hz study), CF1 mice, intraperitoneal, 300 mg/kg, 2 h, ethanol:polyethoxylated castor oil:PBS
  TOX N/F (minimal motor impairment): 6/8
Tables 55/56 (6 Hz study), CF1 mice, intraperitoneal, 500 mg/kg, 2 h, ethanol:polyethoxylated castor oil:PBS
  TOX N/F (minimal motor impairment): 8/8
Tables 59/60 (MES/sc Met study), mice, 500 mg/kg, 2 h, ethanol:polyethoxylated castor oil:PBS
  TOX N/F (minimal motor impairment): 8/8
Time to Peak Effect (Table 56), CF1 mice, intraperitoneal, 200 mg/kg, 4 h, ethanol:polyethoxylated castor oil:PBS
  TOX N/F (minimal motor impairment): 0/8
Time to Peak Effect (Table 56), CF1 mice, intraperitoneal, 250 mg/kg, 4 h, ethanol:polyethoxylated castor oil:PBS
  TOX N/F (minimal motor impairment): 3/8
Time to Peak Effect (Table 56), CF1 mice, intraperitoneal, 300 mg/kg, 4 h, ethanol:polyethoxylated castor oil:PBS
  TOX N/F (minimal motor impairment): 7/8
Time to Peak Effect (Table 56), CF1 mice, intraperitoneal, 300 mg/kg, 6 h, ethanol:polyethoxylated castor oil:PBS
  TOX N/F (minimal motor impairment): 4/8
Time to Peak Effect (Table 56), CF1 mice, intraperitoneal, 300 mg/kg, 8 h, ethanol:polyethoxylated castor oil:PBS
  TOX N/F (minimal motor impairment): 2/8
Time to Peak Effect (Table 56), CF1 mice, intraperitoneal, 300 mg/kg, 24 h, ethanol:polyethoxylated castor oil:PBS
  TOX N/F (minimal motor impairment): 1/8
Time to Peak Effect (Table 56), CF1 mice, intraperitoneal, 500 mg/kg, 0.25 h, ethanol:polyethoxylated castor oil:PBS
  TOX N/F (minimal motor impairment): 0/8
Time to Peak Effect (Table 56), CF1 mice, intraperitoneal, 500 mg/kg, 0.5 h, ethanol:polyethoxylated castor oil:PBS
  TOX N/F (minimal motor impairment): 0/8
Time to Peak Effect (Table 56), CF1 mice, intraperitoneal, 500 mg/kg, 1 h, ethanol:polyethoxylated castor oil:PBS
  TOX N/F (minimal motor impairment): 0/8
Time to Peak Effect (Table 56), CF1 mice, intraperitoneal, 500 mg/kg, 4 h, ethanol:polyethoxylated castor oil:PBS
  TOX N/F (minimal motor impairment): 8/8
Time to Peak Effect (Table 56), CF1 mice, intraperitoneal, 500 mg/kg, 6 h, ethanol:polyethoxylated castor oil:PBS
  TOX N/F (minimal motor impairment): 8/8
Time to Peak Effect (Table 56), CF1 mice, intraperitoneal, 500 mg/kg, 24 h, ethanol:polyethoxylated castor oil:PBS
  TOX N/F (minimal motor impairment): 4/7
Time to Peak Effect (Table 58), mice, 300 mg/kg, 0.25 h, methylcellulose
  TOX N/F (minimal motor impairment): 0/4
Time to Peak Effect (Table 58), mice, 300 mg/kg, 0.5 h, methylcellulose
  TOX N/F (minimal motor impairment): 0/4
Time to Peak Effect (Table 58), mice, 300 mg/kg, 1 h, methylcellulose
  TOX N/F (minimal motor impairment): 0/4
Time to Peak Effect (Table 58), mice, 300 mg/kg, 2 h, methylcellulose
  TOX N/F (minimal motor impairment): 0/4
Time to Peak Effect (Table 58), mice, 300 mg/kg, 4 h, methylcellulose
  TOX N/F (minimal motor impairment): 0/4
Time to Peak Effect (Table 60), mice, 500 mg/kg, 0.25 h, ethanol:polyethoxylated castor oil:PBS
  TOX N/F (minimal motor impairment): 0/8
Time to Peak Effect (Table 60), mice, 500 mg/kg, 0.5 h, ethanol:polyethoxylated castor oil:PBS
  TOX N/F (minimal motor impairment): 0/8
Time to Peak Effect (Table 60), mice, 500 mg/kg, 1 h, ethanol:polyethoxylated castor oil:PBS
  TOX N/F (minimal motor impairment): 0/8
Time to Peak Effect (Table 60), mice, 500 mg/kg, 4 h, ethanol:polyethoxylated castor oil:PBS
  TOX N/F (minimal motor impairment): 7/8
Time to Peak Effect (Table 60), mice, 500 mg/kg, 6 h, ethanol:polyethoxylated castor oil:PBS
  TOX N/F (minimal motor impairment): 7/8
Time to Peak Effect (Table 60), mice, 500 mg/kg, 8 h, ethanol:polyethoxylated castor oil:PBS
  TOX N/F (minimal motor impairment): 4/8
